From ChEMBL document CHEMBL1955801, “Synthesis, biological evaluation and molecular investigation of fluorinated peroxisome proliferator-activated receptors α/γ dual agonists” (Bioorg Med Chem, 2012) come the findings set out here.

This test has as its target T1, Peroxisome proliferator-activated receptor alpha (Homo sapiens) (UniProt Q07869).
T1 sequence (whole entry): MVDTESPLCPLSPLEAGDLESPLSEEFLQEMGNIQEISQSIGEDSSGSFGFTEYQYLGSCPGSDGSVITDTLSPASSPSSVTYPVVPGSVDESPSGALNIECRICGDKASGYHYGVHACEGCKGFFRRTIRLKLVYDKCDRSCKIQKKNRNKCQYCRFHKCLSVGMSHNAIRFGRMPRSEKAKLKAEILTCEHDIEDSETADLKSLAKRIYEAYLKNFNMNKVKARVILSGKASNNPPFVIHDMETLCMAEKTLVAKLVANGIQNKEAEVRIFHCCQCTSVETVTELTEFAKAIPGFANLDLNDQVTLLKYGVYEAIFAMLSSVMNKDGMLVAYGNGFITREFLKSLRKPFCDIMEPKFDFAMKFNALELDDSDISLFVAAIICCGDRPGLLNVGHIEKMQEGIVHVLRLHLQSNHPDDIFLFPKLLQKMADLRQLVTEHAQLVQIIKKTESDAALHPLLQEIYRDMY
Particulars: HepG2, 5 to 10 uM.

Activity calls are given as the source filed them. The calls are words filed in the database; no cut-off is given here.

Turning to `O=C(O)C(Cc1ccccc1)Oc1ccccc1C(F)(F)F` (racemic), the Emax result was “inactive”.
As for `O=C(O)C(Cc1cccc(F)c1)Oc1ccccc1C(F)(F)F` (racemic), the entry is “inactive”.
